Test results taken from patent US20130029983A1, “AMINOTHIENOPYRIDAZINE INHIBITORS OF TAU ASSEMBLY” (priority 2009, published 2013).

Amino acid sequences for entries named in this document (tags omitted). Residues count along the entry.
UniProt P10636, 561-686 P618L limits assumed: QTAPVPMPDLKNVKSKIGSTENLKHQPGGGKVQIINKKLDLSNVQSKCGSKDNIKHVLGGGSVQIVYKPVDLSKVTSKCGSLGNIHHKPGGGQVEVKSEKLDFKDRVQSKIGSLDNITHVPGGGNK

Legend:
[1] = biological target: T1, K18PL tau (Homo sapiens, UniProt P10636, P618L); assay: Heparin-induced K18PL tau fibrillization assay monitored by ThT fluorescence; conditions: Table 4
Protocol: Tau fibril formation reactions were performed essentially as described (Crowe, A., Ballatore, C., Hyde, E., Trojanowski, J. Q., and Lee, V. M. Y. (2007) Biochemical and Biophysical Research Communications 358, 1-6). K18PL (2 μl of a 30 μM stock that also contained 0.24 μM Alexa Red-labeled K18PL) was dispensed into black 1536-well plates (Grenier) using a solenoid-based dispenser. Following transfer of 23 nL of test compound or DMSO vehicle by a pin tool from compound library plates, 2 μl/well of 40 μM heparin in reagent buffer was dispensed and the plate was centrifuged for 15 s at 1000 rpm in a table-top centrifuge. […]
K18PL fibril formation was quantified with a ThT assay as previously described (Crowe, A., Ballatore, C., Hyde, E., Trojanowski, J. Q., and Lee, V. M. Y. (2007) Biochemical and Biophysical Research Communications 358, 1-6). […] Plates were read on an Envision fluorescence plate reader with an excitation of 450 nm and an emission setting of 510 nm.
Compound effects on tau assembly were determined for the ThT and FP assays using the formula 1−(Fcompound− FDMSO)/( Fcontrol− FDMSO), where Fcontrol denotes the median plate fluorescence values (ThT assay) or mP values (FP assay) of the non-fibrillizing K18 KD control wells, FDMSO denotes the median value of the DMSO control wells, and Fcompound denotes the compound well values. […]

[2] = biological target: T1, K18PL tau; assay: K18PL tau centrifugation (sedimentation) assay, SDS-PAGE densitometry; conditions: Table 4
Protocol: The determination of compound-induced effects on the amount of tau that remains soluble upon centrifugation, and EM visualization of tau species following incubation with test compounds, were as previously described (Crowe, A., Ballatore, C., Hyde, E., Trojanowski, J. Q., and Lee, V. M. Y. (2007) Biochemical and Biophysical Research Communications 358, 1-6).
The solubility of test compounds in the sodium acetate buffer used for subsequent fibrillization reactions was determined by turbidimetric measurements. Compounds were then evaluated in a heparin-induced tau assembly assay, in which the fibrillization of the truncated K18 tau fragment (comprised of four MT-binding repeats) bearing the P301L mutation (K18PL) found in FTDP-17, was monitored by thioflavine-T (ThT) binding and fluorescence (FIG. 3A). (Crowe, A.; et al., Identification of aminothienopyridazine inhibitors of tau assembly by quantitative high-throughput screening. Biochemistry 2009, 48, 7732-45.) The inhibitory activity of test compounds was then confirmed with an orthogonal sedimentation assay in which compound-treated fibrillizing mixtures were centrifuged and quantitation of K18PL tau in the soluble and insoluble fraction was performed by densitometric analyses of SDS-PAGE (FIG. 3B). […]

Tau ThT Assay % Inhib. ([1]; highest tested concentration (80 μM)): 87%
Tau ThT Assay Log IC50 ([1]; logarithm of IC50, K18PL tau ThT fluorescence inhibition): −5.2
Tau Cent. Assay % Soluble [2]: 64%
Structure (SMILES): CC(C)(C)OC(=O)Nc1nn(-c2ccc(Cl)cc2)c(=O)c2c(N)scc12
